Data reported in publication PMC4366370, “Overexpression of a Novel Thermostable and Chloride-Tolerant Laccase from Thermus thermophilus SG0.5JP17-16 in Pichia pastoris and Its Application in Synthetic Dye Decolorization” (PLoS ONE, 2015).

Tested on: CCn1c(=NN=c2sc3cc(S(=O)(=O)O)ccc3n2CC)sc2cc(S(=O)(=O)O)ccc21
Test: purified protein
Details: optimal pH 4.5, 90°C

Substance: LacTT (Thermus thermophilus SG0.5JP17-16)
- Km: 36.0 ± 3.4 µM
- kcat: 0.365 s⁻¹
- kcat/Km: 11000 M⁻¹ s⁻¹
